Drawing on PMC7900901 (SLAS discovery : advancing life sciences R & D, 2017), this text covers IC50 for one molecule.

The chains behind the UniProt entries cited, without tags or fusion partners.
UniProt Q9NUW8, whole entry: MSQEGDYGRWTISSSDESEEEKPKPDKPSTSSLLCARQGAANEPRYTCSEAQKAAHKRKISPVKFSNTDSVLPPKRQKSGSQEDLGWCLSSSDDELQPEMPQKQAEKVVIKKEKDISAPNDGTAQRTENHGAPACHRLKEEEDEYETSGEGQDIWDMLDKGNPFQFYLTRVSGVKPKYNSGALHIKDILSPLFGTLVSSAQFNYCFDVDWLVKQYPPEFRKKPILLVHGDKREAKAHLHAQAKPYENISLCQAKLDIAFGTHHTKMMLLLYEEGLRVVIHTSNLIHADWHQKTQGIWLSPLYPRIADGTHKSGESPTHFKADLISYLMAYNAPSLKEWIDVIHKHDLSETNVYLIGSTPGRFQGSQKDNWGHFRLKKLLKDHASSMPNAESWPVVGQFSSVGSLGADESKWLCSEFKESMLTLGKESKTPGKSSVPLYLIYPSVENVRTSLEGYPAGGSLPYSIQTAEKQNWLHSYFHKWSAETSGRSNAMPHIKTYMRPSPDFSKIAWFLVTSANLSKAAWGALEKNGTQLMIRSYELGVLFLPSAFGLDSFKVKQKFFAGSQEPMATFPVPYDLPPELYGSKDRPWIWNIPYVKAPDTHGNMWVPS

The term IC50 denotes the concentration at which inhibition is half-maximal.

The assay has as its target human TDP1 (Homo sapiens, UniProt Q9NUW8). In words: Continuous FRET assay, IC50 determination of inhibitors of TDP1. In kind it is biochemical.

Each structure is given as a SMILES string.

`O=C(O)C1=CC(=C(c2ccc(O)c(C(=O)O)c2)c2ccc(O)c(C(=O)O)c2)C=CC1=O` [Aurintricarboxylic acid, reference compound]: the IC50 stood at 8 ± 1 µM.
